{"sequences": {"note": "Amino acid sequences for entries named in this document (tags omitted).", "UniProt Q15858, whole entry": "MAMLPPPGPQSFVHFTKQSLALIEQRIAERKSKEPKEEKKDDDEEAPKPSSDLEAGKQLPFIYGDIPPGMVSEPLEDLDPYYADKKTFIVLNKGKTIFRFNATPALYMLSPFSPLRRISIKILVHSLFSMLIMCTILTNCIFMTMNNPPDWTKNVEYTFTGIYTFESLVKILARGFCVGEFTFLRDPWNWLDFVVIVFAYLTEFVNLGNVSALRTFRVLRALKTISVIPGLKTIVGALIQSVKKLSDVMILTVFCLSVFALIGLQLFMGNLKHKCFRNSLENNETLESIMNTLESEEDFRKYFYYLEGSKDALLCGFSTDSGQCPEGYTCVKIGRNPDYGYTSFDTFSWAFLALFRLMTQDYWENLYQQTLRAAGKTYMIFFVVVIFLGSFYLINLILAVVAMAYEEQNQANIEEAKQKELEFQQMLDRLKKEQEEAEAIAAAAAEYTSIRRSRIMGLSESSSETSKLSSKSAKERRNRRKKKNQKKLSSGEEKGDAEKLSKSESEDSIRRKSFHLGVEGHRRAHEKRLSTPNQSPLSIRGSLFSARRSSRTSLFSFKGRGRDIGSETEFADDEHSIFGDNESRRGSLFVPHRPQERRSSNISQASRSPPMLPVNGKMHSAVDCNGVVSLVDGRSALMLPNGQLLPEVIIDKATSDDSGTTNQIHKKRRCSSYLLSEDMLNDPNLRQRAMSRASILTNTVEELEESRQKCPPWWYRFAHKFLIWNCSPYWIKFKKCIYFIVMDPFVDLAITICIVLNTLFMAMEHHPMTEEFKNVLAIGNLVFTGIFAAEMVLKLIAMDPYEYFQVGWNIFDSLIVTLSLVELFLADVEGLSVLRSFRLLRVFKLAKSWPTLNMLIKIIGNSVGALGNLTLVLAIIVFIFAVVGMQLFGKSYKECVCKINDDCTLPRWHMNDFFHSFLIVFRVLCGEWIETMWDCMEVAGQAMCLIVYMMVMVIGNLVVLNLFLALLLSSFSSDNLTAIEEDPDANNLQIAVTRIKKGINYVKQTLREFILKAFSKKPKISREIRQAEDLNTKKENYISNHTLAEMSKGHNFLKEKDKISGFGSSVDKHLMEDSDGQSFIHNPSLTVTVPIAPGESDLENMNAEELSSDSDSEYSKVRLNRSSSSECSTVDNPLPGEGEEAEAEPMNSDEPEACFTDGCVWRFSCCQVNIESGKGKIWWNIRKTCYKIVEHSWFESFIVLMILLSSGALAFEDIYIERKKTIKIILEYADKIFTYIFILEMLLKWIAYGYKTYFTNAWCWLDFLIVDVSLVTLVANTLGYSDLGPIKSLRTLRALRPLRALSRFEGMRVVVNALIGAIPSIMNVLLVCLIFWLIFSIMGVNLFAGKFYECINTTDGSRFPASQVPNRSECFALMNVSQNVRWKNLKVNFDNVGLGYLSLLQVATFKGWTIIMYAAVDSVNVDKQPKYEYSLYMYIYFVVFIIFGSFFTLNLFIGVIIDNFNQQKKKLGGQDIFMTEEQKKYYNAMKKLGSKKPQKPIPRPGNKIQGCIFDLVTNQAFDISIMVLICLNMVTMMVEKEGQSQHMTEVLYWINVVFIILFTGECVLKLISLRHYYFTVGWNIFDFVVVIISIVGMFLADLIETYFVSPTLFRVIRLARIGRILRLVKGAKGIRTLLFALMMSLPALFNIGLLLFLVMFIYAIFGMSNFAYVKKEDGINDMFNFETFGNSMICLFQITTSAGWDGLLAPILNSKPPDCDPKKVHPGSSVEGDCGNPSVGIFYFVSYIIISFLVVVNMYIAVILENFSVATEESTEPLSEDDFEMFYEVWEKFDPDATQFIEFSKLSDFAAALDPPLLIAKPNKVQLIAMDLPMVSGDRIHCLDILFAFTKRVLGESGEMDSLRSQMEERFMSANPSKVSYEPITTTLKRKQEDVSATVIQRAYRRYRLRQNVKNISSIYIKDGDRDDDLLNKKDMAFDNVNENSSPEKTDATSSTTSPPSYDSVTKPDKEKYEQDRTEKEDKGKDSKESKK"}, "source": "patent US11583512B2", "about": "“Composition for relieving itch or irritation of skin, comprising thymol trimethoxycinnamate” (Amorepacific Corporation, priority 2020, dated 2023)", "key": {"[1]": {"target": "Nav1.7 human sodium ion channel (Homo sapiens, UniProt Q15858)", "test": "Nav1.7 human sodium ion channel cell-based automated patch clamp assay (Eurofins, CYL8011QP2)", "conditions": "applied 5 minutes; for Inhibition rate (%) Pulse 1: pulse 1 (inhibition of channel opening); for Inhibition rate (%) Pulse 2: pulse 2 (inhibition of the deactivated state)", "method": "Nav1.7 human sodium ion channel cell-based automated patch clamp assay (Eurofins, CYL8011QP2) was conducted. In a control step, the amplitude of current exceeding 200 pA was analyzed. The current amplitude was calculated by measuring the difference between the peak internal current and the residual current at the final step in −10 mV (current peak) steps. The current was evaluated under a vehicle control condition and then for 5 minutes after applying the compound.\nThe sodium channel is a) in resting or closed state at −120 mV, and b) in temporarily open deactivated state at 0 mV. The inhibition of channel opening (pulse 1) is measured from the sodium current at 0 mV within 1-2 ms. In order to completely deactivate the sodium channel and facilitate deactivated state-dependent drug biding, the channel was maintained longer in the open state (0 mV) and then returned to the deactivated resting or closed state at −120 mV for 10 ms. Then, the inhibition of the deactivated state (pulse 2) was evaluated at 0 mV for 50 ms. The compound was applied with each concentration for 5 minutes."}, "[2]": {"target": "voltage-gated sodium channel Nav1.7 (Homo sapiens, UniProt Q15858)", "test": "Nav1.7 inhibition, membrane potential fluorescence dye assay with veratridine stimulation in Human Nav1.7-HEK293 cells", "format": "cell-based"}}}
{"smiles": "COc1cc(/C=C/C(=O)Oc2cc(C)ccc2C(C)C)cc(OC)c1OC", "values": [{"measurement": "Inhibition rate (%) Pulse 1", "setting": "[1]; 10 μM", "value": 0.07, "unit": "%"}, {"measurement": "Inhibition rate (%) Pulse 2", "setting": "[1]; 10 μM", "value": 6.60, "unit": "%"}, {"measurement": "Inhibition rate (%) Pulse 1", "setting": "[1]; 30 μM", "value": 4.30, "unit": "%"}, {"measurement": "Inhibition rate (%) Pulse 2", "setting": "[1]; 30 μM", "value": 23.20, "unit": "%"}, {"measurement": "Inhibition rate (%) Pulse 1", "setting": "[1]; 60 μM", "value": 0.93, "unit": "%"}, {"measurement": "Inhibition rate (%) Pulse 2", "setting": "[1]; 60 μM", "value": 24.67, "unit": "%"}, {"measurement": "Inhibition rate (%) Pulse 1", "setting": "[1]; 100 μM", "value": 15.26, "unit": "%"}, {"measurement": "Inhibition rate (%) Pulse 2", "setting": "[1]; 100 μM", "value": 53.23, "unit": "%"}, {"measurement": "Inhibition rate (%) Pulse 1", "setting": "[1]; 200 μM", "value": 15.17, "unit": "%"}, {"measurement": "Inhibition rate (%) Pulse 2", "setting": "[1]; 200 μM", "value": 65.02, "unit": "%"}, {"measurement": "IC50", "setting": "[2]; Human Nav1.7-HEK293 cells, 30 μM veratridine as stimulant, membrane potential dye", "value": 3.1, "unit": "µM"}, {"measurement": "effect of inhibiting the voltage-gated sodium channel Nav1.7 compared to lidocaine", "setting": "[2]; compared to lidocaine of the same concentration", "value": "superior effect"}]}
